Here are results for two molecules from BindingDB's records for 12372498.

By UniProt entry, the sequences of proteins in these tests, tags left out. Where a name states a change or a piece, a line headed by the entry shows the natural chain unless it says otherwise.
UniProt P18031: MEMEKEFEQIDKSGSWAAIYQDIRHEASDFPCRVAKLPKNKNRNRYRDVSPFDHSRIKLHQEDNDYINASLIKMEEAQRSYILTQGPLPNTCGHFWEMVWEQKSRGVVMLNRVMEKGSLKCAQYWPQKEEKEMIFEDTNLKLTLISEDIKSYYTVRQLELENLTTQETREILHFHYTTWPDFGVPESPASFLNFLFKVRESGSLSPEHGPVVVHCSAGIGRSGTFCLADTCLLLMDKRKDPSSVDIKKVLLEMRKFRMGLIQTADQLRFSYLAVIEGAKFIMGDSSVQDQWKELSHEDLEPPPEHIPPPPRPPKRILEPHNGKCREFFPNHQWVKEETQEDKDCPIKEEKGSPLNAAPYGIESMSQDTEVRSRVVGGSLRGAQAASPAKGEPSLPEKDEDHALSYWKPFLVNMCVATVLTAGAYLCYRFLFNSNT

Each structure is given as a SMILES string.

As usually defined, the Ki is a dissociation constant, usually derived from enzyme kinetics or from competition with a known ligand.

The test deals with Tyrosine-protein phosphatase non-receptor type 1 (Homo sapiens, UniProt P18031). The experiment in a line: ChEBML_162441.

Take `O=C(CBr)c1ccc([N+](=O)[O-])cc1`: the Ki amounted to 195 µM.
Turning to `COc1ccc(C(=O)CBr)cc1`, the inhibition constant Ki turned out to be 128 µM.
